Experimental data taken from article PMC11670252, “Antibody-mediated clearance of an ER-resident aggregate that causes glaucoma” (PNAS Nexus, 2024).

B1: Anti-OLF1 Fab (Fab, V domains shown)
VH: QVQLQQSGPELVKPGASVKISCKTSGYTFTENTMHWVRQSHGKSLEWIGGIHPNNIGSTYNQKFKGKATLTVDKSSSTAYMELRSLTSEDSAVYYCTRGATAPFAYWGQGTLVTVSA
VL: DIVMTQTPLSLPVSLGDQASISCRSSQSIVHSNGNTYLHWYQQKSGQSPKLLIYKVSNRFSGVPDRFSGSGSGTDFTLKISRVEAEDLGVYFCSQSTHVPPTFGGGTKLEIK
B2: Anti-OLF2 Fab (Fab, V domains shown)
VH: EVKLVESGPGLVAPSQSLSITCTVSGFSLRNYGVHWFRQPPGKGLEWLAVTWSDGSTTYNSVLKSRLSISKDNSKSQVFLKMNSLQSDDTAMYYCARTLNLYRYDGMDYWGRGTSVTVSS
VL: not shown

Target: T1, Biotinylated human OLF (Homo sapiens, biotin (EZ-Link Sulfo-NHS-Biotin, 1:20 molar ratio; sites not stated))
T1 construct: human myocilin, olfactomedin (OLF) domain; That MBP is cleaved is inferred as for Dm3; also called biotinylated-OLF; source: biotinylated with EZ-Link Sulfo-NHS-Biotin
T1 chain: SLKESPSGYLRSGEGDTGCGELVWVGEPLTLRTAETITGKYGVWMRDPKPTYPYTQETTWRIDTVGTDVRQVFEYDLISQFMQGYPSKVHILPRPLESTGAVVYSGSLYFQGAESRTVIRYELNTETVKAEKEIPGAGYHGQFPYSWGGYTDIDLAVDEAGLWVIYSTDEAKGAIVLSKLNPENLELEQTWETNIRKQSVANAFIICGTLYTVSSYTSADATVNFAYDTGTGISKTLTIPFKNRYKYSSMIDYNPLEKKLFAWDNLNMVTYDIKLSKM
Assay: BLI; ForteBio OctetRed; biotinylated OLF loaded on streptavidin biosensors at 20 ug/mL; Fab serially diluted 1:3 from 111.1 nM in HBS-EBT (10 mM HEPES, NaCl, 3 mM EDTA, 1 mg/mL BSA, 0.5% Tween-20); association 300 s, dissociation 300 s; global fit, 1:1 Langmuir model
Settings: both partners purified

Binder	Kd [nM]	koff [s⁻¹]	kon [M⁻¹ s⁻¹]
B1	18.3	0.00335	183000
B2	5.61	0.00167	298000
